The values that follow come from US20230303817A1, “BLENDED POLYVINYL ALCOHOL DRUG DELIVERY SYSTEMS” (The University of British Columbia, priority 2020, published 2023).

The data set is described as follows: Release of other therapeutic agents from blended PVA cast films or electrospun membranes. Format: physicochemical. The following applies: 1% BSA. The method, then:
Films or electrospun membrane were manufactured as described above containing either docetaxel, doxycycline, gentamicin or bovine serum albumin (BSA; as a protein model for any “biological” based drug such as an antibody). […] Gentamicin was analyzed using a fluorescence tag assay using Fluoraldehyde™ (Thermo Fisher) and BSA protein release was assayed using a BCA protein analysis kit.

For bovine serum albumin [BSA], the protein release is 100% (cast films of blended PVA 99%:88%, at day 6) and 10% (electrospun membrane of blended PVA 99%:88%, at 6 days).
